Each structure is given as a SMILES string. pKi: −log10 of the molar value.

This experiment deals with Adenosine receptor A2a (Homo sapiens, UniProt P29274).

The compound `Nc1nnc(-c2ccccc2)c(-c2ccccc2)n1` had a pKi of 6.94.

Values taken from ChEMBL document CHEMBL3259781 (J Med Chem, 2014).
